Target: T1, apTKRPR-B (Aplysia californica, UniProt A0AAU7STS1)
T1 sequence (A0AAU7STS1 1-447): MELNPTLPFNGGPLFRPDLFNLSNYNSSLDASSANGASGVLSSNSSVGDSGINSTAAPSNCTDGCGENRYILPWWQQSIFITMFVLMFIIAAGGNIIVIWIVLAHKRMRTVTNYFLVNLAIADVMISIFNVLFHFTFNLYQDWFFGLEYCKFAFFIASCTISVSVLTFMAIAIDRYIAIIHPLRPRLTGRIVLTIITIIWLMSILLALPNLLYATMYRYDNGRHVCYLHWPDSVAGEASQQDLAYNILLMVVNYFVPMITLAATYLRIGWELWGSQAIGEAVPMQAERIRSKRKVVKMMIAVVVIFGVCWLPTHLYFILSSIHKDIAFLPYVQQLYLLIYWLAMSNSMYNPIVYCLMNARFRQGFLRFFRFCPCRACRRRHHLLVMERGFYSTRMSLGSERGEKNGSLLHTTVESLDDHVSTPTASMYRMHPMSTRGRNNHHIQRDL
Experiment: IP1 accumulation assay, CHO-K1 cells transiently expressing apTKRPR-B
Format: cell-based
Experimental: To express putative Aplysia receptors transiently in CHO-K1 cells, the cDNAs were subcloned into the pcDNA3.1(+) or pcDNA3.1(+)-FLAG (for ELISA experiments only, see “Cell surface expression analysis by ELISA” section) expression vector. On the day before transfection, the CHO-K1 cells were passaged into 60 mm diameter tissue culture–treated dishes, and the transfection experiments were performed when the cells were grown to 70 to 90% confluence. CHO-K1 cells were transfected with the cDNA plasmid constructs using Turbofect Transfection reagent (Thermo Fisher Scientific, R0531), following the manufacturer’s instructions. […] The DNA/TurboFect mixture dropwise was then added to the dish, and the cells were incubated at 37 °C in a humidified incubator containing 5% CO2 overnight.
On the third day, the activation of the putative receptors was detected by monitoring intracellular IP1 concentration using an IP-One Gq kit (Cisbio, 62IPAPEB) in Tecan Spark. Except for using 0.5x reagent, all other procedures were performed following the manufacturer’s instructions. IP1 accumulation assay measures the accumulation of IP1, which is hydrolyzed from the second messenger, and inositol triphosphate. Inositol triphosphate is generated by the Gαq pathway when a GPCR is activated by an appropriate ligand.

Compound `CC(C)C[C@H](NC(=O)[C@H](Cc1c[nH]cn1)NC(=O)[C@@H]1CCCN1C(=O)[C@@H]1CCC(=O)N1)C(=O)NCC(=O)N[C@@H](Cc1ccccc1)C(=O)N[C@@H](C)C(=O)NCC(=O)N[C@@H](CO)C(=O)N[C@@H](CCCNC(=N)N)C(N)=O` [[Ala^7]apTKRP-2b] has an EC50 of 0.234 µM.
